Assay outcomes deposited in PubChem BioAssay by Broad Institute.
UUG fidelity: modulators of start codon recognition fidelity in yeast. S. cerevisiae UUG-firefly luciferase reporter, luminescence/redox ratio. activity score, % at 18.7 µM. 0.13% of 350,000 active. AID 602363;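 active = replicate mean at a twofold rise or more, about +100% in these data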;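 also: firefly luciferase made from a UUG start codon reports start codon fidelity; reporter light over untreated wells divided by growth signal over untreated wells; some hits fall short of that in this replicate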
C2C12 statin: suppressors of statin myotoxicity in C2C12 myotubes, primary screen, cell-based, single point, plate reader. rescue of ATP level, % at 7.49 µM. hit rate 0.78% among 330,000. AID 602340, 2012. C2C12 myotubes + simvastatin, ATP luminescence, 48 h; scaled: DMSO 0, geranylgeraniol control 100;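 active means mean ATP rescue above about 67%, or every replicate alone reaching that limit, limit read from the data, passing the limit was not always enough; inconclusive means no clear call, values can overlap the other calls; inactive means mean under the limit and some replicate under it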;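 further: myotubes were challenged with 10 µM simvastatin during compound exposure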
Cneo AK release: Cryptococcus neoformans cell lysis inducers, primary screen, AK release luminescence, single concentration; C. neoformans lysis, adenylate kinase release luminescence, 4 h; normalised: neutral wells 0, clomiphene wells 100; lysis activity, % at 15 µM; hit rate 0.2% among 360,000; AID 651654, 2012;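 active means mean lysis activity across replicates of at least 80%, whatever share of replicates individually reach that level; inactive means mean lysis activity below 80%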
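read-out = cell lysis signal | test system = log-phase Cryptococcus neoformans yeast cells | input = cells at 5 × 10^6 per mL | medium = fresh YPD growth medium | signal = luminescent adenylate kinase detection reagent | timing = 4 h at 37 °C static, read 1 h later | dosing = single dose | controls = Clomiphene as positive lysis control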
miR-122 sensor: miR-122 Renilla sensor signal increase in Huh7, primary screen, miR-122 inhibitor project, cell-based, single point, plate reader; Huh7 miR-122 Renilla luciferase sensor, 48 h; neutral wells = 0, positive control = 100; hit rate 0.3% among 340,000; activation (reporter increase), % at 12.5 µM; AID 602342, 2012;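 active means mean replicate activation score at least 90 and every replicate individually at or above 90; inconclusive means only one of the two criteria met; inactive means neither criterion met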;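 further: higher luciferase means less miR-122 activity so hits act as miR-122 inhibitors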
Glyco luc inh: increase of ERlucT glycosylation luciferase signal, primary screen, N-linked glycosylation inhibitor project, D54 ERlucT cells, luminescence, set 2 | D54 ERlucT glycosylation luciferase reporter, 24 h; percent of 100 nM tunicamycin response | reporter increase, % at 12.5 µM | hit rate 0.23% among 360,000;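 active means mean luciferase reporter signal, scaled so untreated is 0 and the glycosylation-blocking control 100, at or above a set limit in every replicate; inconclusive means mean reaches the limit but not every replicate does; inactive means mean below the limit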;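 further: luciferase carries N-glycosylation sites so blocking glycosylation raises the light; 0% = median of neutral control wells and 100% = median of 100 nM tunicamycin wells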
Active calls of the source: *; ? = inconclusive; / = not tested or not shown; [ ] = dose if it differs, or a comment. Compounds with a hit are over-represented: about 1.2% of the library has one in this group of screens.

1. C[C@@H]1CN([C@@H](C)CO)C(=O)c2cc(C3=CCCCC3)cnc2O[C@H]1CN(C)Cc1ccccc1
2. C/C=C/c1cnc2c(c1)C(=O)N([C@@H](C)CO)C[C@H](C)[C@@H](CN(C)C(=O)C1CCCCC1)O2
3. C/C=C/c1cnc2c(c1)C(=O)N([C@@H](C)CO)C[C@@H](C)[C@@H](CN(C)C(=O)C1CCCCC1)O2
4. c1ccc2oc(-c3ccc4nc[nH]c4c3)nc2c1
5. Nc1nc2ccc(-c3nc4ccccc4o3)cc2s1
6. COc1cccc(-c2cnc(C(O)c3ccc(F)c(C)c3)[nH]2)c1 (stereo not drawn)
7. OC(c1ccc(Cl)c(F)c1)c1ncc(-c2ccc(Cl)cc2)[nH]1 (stereo not drawn)
8. Cc1cc(C(O)c2ncc(-c3ccccc3)[nH]2)ccc1F (stereo not drawn)

screen / no. | 1 | 2 | 3 | 4 | 5 | 6 | 7 | 8
UUG fidelity | 9 | 3 | -4 | -3 | -25 | -13 | -17 | -22
C2C12 statin | 16 | 10 | 24 | -1 | 75* | 7 | -6 | -2
Cneo AK release | 0 | 0 | 105* | -11 | -11 | -2 | -1 | -2
miR-122 sensor | 0[16.7 µM] | 0[16.7 µM] | 1[16.7 µM] | 4 | -4 | 10 | 4 | 158*
Glyco luc inh | / | / | / | -5 | -6 | 0 | -3 | -1

9. OC(c1ccc(Cl)c(F)c1)c1ncc(-c2cccc(F)c2)[nH]1 (stereo not drawn)
10. O=C(NNC(=S)NC(=O)c1ccccc1Cl)c1cccc([N+](=O)[O-])c1
11. O=C(NC(NC(=S)Nc1c(Cl)cccc1Cl)C(Cl)(Cl)Cl)c1cccc([N+](=O)[O-])c1 (stereo not drawn)
12. CCCCNC(=O)C1(C)CCCCCN1Cc1cc2ccccc2o1 (stereo not drawn)
13. Cn1cc(C(=O)N/N=C/C(Br)=C\c2ccccc2)ccc1=O
14. Cn1cc(C(=O)N/N=C/C(Br)=C/c2ccccc2)ccc1=O
15. CCCCc1cc(=O)oc2cc(OCc3nn[nH]n3)ccc12
16. CCCc1cc(=O)oc2cc(OCc3nn[nH]n3)ccc12

screen / no. | 9 | 10 | 11 | 12 | 13 | 14 | 15 | 16
UUG fidelity | -10 | -39 | -7 | 3 | 1 | / | / | -13
C2C12 statin | 7 | -6 | / | 77* | 35 | / | 16 | -2
Cneo AK release | 0 | 0 | 7 | -4 | -3 | / | / | -1
miR-122 sensor | 124* | 4 | 174* | 5 | 26 | / | -3 | 164*
Glyco luc inh | -2 | 3 | -6 | -3 | ? | 25* | 2 | 0

17. COc1cccc(NC(=O)N[C@@H]2C=C[C@@H](CC(=O)N3CCN(C)CC3)O[C@H]2CO)c1
18. C[C@@H]1CN([C@H](C)CO)C(=O)Cc2cc(NC(=O)CCCCCC(=O)Nc3ccccc3N)ccc2O[C@@H]1CN(C)Cc1ccc(Cl)c(Cl)c1
19. C[C@@H]1CN([C@@H](C)CO)C(=O)Cc2cc(NC(=O)CCCCCC(=O)Nc3ccccc3N)ccc2O[C@@H]1CN(C)Cc1ccc(Cl)c(Cl)c1
20. C[C@H](CO)N1C[C@H](C)[C@H](CN(C)Cc2ccc(Cl)c(Cl)c2)Oc2ccc(NC(=O)CCCCCC(=O)Nc3ccccc3N)cc2CC1=O
21. O=C(C[C@H]1CC[C@H]2[C@@H](COC[C@@H](O)CN2Cc2ccncc2)O1)NCC1CC1
22. CC(C)NC(=O)Nc1ccc2c(c1)C(=O)N([C@@H](C)CO)C[C@H](C)[C@H](CN(C)C(=O)CCC(F)(F)F)OCCCC[C@H](C)O2
23. C[C@@H]1CN([C@H](C)CO)C(=O)c2cc(-c3cccc(F)c3)cnc2O[C@H]1CN(C)Cc1ccccn1
24. C[C@H](CO)N1C[C@H](C)[C@@H](CN(C)Cc2ccc3c(c2)OCO3)Oc2ccc(NS(=O)(=O)c3ccc(F)cc3)cc2CC1=O

screen / no. | 17 | 18 | 19 | 20 | 21 | 22 | 23 | 24
UUG fidelity | -10 | 8 | 3 | 4 | -5 | / | -7 | 6
C2C12 statin | 16 | 85* | 37 | 139* | -8 | / | 2 | 150*
Cneo AK release | 2 | 0 | 0 | -1 | 0 | 2 | 1 | 1
miR-122 sensor | / | -9[16.7 µM] | -13[16.7 µM] | 14[16.7 µM] | 2[16.7 µM] | 5[16.7 µM] | 0[16.7 µM] | -3[16.7 µM]
Glyco luc inh | / | / | / | / | / | / | / | /

Part of the list above in another layout.
#1 C[C@@H]1CN([C@@H](C)CO)C(=O)c2cc(C3=CCCCC3)cnc2O[C@H]1CN(C)Cc1ccccc1
- UUG fidelity: 9
- C2C12 statin: 16
- Cneo AK release: 0
- miR-122 sensor: 0[16.7 µM]
- Glyco luc inh: /

#6 COc1cccc(-c2cnc(C(O)c3ccc(F)c(C)c3)[nH]2)c1 (stereo not drawn)
- UUG fidelity: -13
- C2C12 statin: 7
- Cneo AK release: -2
- miR-122 sensor: 10
- Glyco luc inh: 0

#7 OC(c1ccc(Cl)c(F)c1)c1ncc(-c2ccc(Cl)cc2)[nH]1 (stereo not drawn)
- UUG fidelity: -17
- C2C12 statin: -6
- Cneo AK release: -1
- miR-122 sensor: 4
- Glyco luc inh: -3

#21 O=C(C[C@H]1CC[C@H]2[C@@H](COC[C@@H](O)CN2Cc2ccncc2)O1)NCC1CC1
- UUG fidelity: -5
- C2C12 statin: -8
- Cneo AK release: 0
- miR-122 sensor: 2[16.7 µM]
- Glyco luc inh: /

Continuation.
25. C[C@H]1CN([C@@H](C)CO)C(=O)Cc2cc(NS(=O)(=O)c3ccc(F)cc3)ccc2O[C@@H]1CN(C)Cc1ccc2c(c1)OCO2
26. CC(C)NC(=O)Nc1ccc2c(c1)CC(=O)N([C@@H](C)CO)C[C@H](C)[C@H](CN(C)Cc1ccc3c(c1)OCO3)O2
27. C[C@@H]1CN([C@@H](C)CO)C(=O)Cc2cc(NS(=O)(=O)c3ccc(F)cc3)ccc2O[C@H]1CN(C)Cc1ccc2c(c1)OCO2
28. CC(C)NC(=O)Nc1ccc2c(c1)CC(=O)N([C@@H](C)CO)C[C@@H](C)[C@@H](CN(C)Cc1ccc3c(c1)OCO3)O2
29. CC(C)NC(=O)N[C@H]1CC[C@H](CCn2cc(-c3ccccc3)nn2)O[C@@H]1CO
30. Cc1ccc(S(=O)(=O)N[C@H]2C=C[C@H](CC(=O)N3CCc4ccccc4C3)O[C@H]2CO)cc1
31. CCOC(=O)c1c(-c2ccc(C)o2)csc1NC(=O)CN1CCOCC1
32. CCOC(=O)c1c(-c2cccs2)csc1NC(=O)CN1CCOCC1

screen / no. | 25 | 26 | 27 | 28 | 29 | 30 | 31 | 32
UUG fidelity | -2 | / | 5 | / | -4 | -3 | -11 | -8
C2C12 statin | 124* | -28 | 63 | -26 | 1 | 3 | -6 | 93*
Cneo AK release | -2 | 107* | -3 | -1 | -4 | 0 | -2 | 0
miR-122 sensor | -9[16.7 µM] | 3[16.7 µM] | -10[16.7 µM] | 2[16.7 µM] | / | / | -5 | -4
Glyco luc inh | / | / | / | / | / | / | -1 | 0

33. CCOc1ccc(C2SCC(=O)N2c2c(C)n(C)n(-c3ccccc3)c2=O)cc1 (stereo not drawn)
34. Cc1c(N2C(=O)CSC2c2ccccc2)c(=O)n(-c2ccccc2)n1C (stereo not drawn)
35. O=C1c2ccccc2C(=O)N1CCCN1C(=O)c2ccccc2C1=O
36. O=C1c2ccccc2C(=O)N1CC1=CCS(=O)(=O)C1
37. C[C@H](CO)N1C[C@H](C)[C@@H](CN(C)Cc2ccccc2)OCCCC[C@H](C)Oc2ccc(NS(C)(=O)=O)cc2C1=O
38. Nc1ccc2oc(-c3cccc4ccccc34)nc2c1
39. Cc1ccnc2nc(C(=O)OCC(=O)c3ccccc3)nn12
40. N#Cc1nc(COc2ccccc2)oc1N1CCCC1
41. N#Cc1nc(COc2ccccc2)oc1N1CCOCC1
42. Cc1ccc(Sc2c(CO)c(-c3ccccc3)nn2C)cc1
43. COC(=O)C1=C(N)OC2=C(C(=O)CC(C)(C)C2)C1c1ccccc1OC (stereo not drawn)

screen / no. | 33 | 34 | 35 | 36 | 37 | 38 | 39 | 40 | 41 | 42 | 43
UUG fidelity | -6 | -4 | -10 | 4 | 11 | -25 | -7 | 6 | 3 | / | -10
C2C12 statin | 117* | / | -1 | 112* | 44 | 89* | 112* | 15 | 106* | / | 0
Cneo AK release | 0 | -2 | 0 | 1 | 0 | -2 | -1 | 0 | -1 | / | -2
miR-122 sensor | -2 | / | 8 | -6 | -4[16.7 µM] | 10 | -1 | 1 | 0 | / | -2
Glyco luc inh | 3 | 1 | 1 | 5 | / | -3 | 1 | -3 | 0 | 29* | 3
